UUG fidelity – modulators of start codon recognition fidelity in yeast; AID 602363; hit rate 0.13% among 350,000; activity score, % at 18.7 µM; S. cerevisiae UUG-firefly luciferase reporter, luminescence/redox ratio;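 active = replicate mean at a twofold rise or more, about +100% in these data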;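 note: firefly luciferase made from a UUG start codon reports start codon fidelity; reporter light over untreated wells divided by growth signal over untreated wells; some hits fall short of that in this replicate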
SR-BI HDL uptake – inhibitors of SR-BI mediated HDL lipid uptake, primary screen, ldlA[mSR-BI] cells, fluorescence, single point; ldlA[mSR-BI] CHO cells, DiI-HDL uptake fluorescence, 3 h; inhibition, % at 12.5 µM; 320,000 tested, 0.96% active; AID 488896, 2010; Scavenger receptor class B member 1 (Mus musculus), Q61009;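 active = mean replicate inhibition of at least 70% and a set share of replicates each scoring 70 or more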
GSIS activator – GLuc luminescence reporter in INS-1E cells, primary screen for activators of glucose-dependent secretion of insulin | INS-1E GLuc reporter insulin secretion, 2-3 h | activation, % at 16.6 µM | 370,000 tested, 0.61% active;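 active = lowest replicate activation of at least 40%, so every replicate reaches that level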
SR-BI DiI-HDL act – activators of SR-BI mediated DiI-HDL uptake, primary screen, ldlA[mSR-BI] CHO cells, DiI fluorescence | 320,000 tested, 0.096% active | activation, % at 12.5 µM | AID 504775, 2011 | 3 h; 100 = double the neutral-control signal;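 active = mean replicate activation of at least 60% and every replicate at or above 60%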
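Material: SR-BI-overexpressing, LDLR-lacking CHO cells | Dosing: Single compound concentration, delivered by pin transfer | Probe or stimulus: Labelled HDL, 10 µg/mL | Signal: Bottom-read cell fluorescence after medium removal, ex 550/em 595 nm | Schedule: 3 h, 37 °C | Evaluation: HDL uptake via cellular fluorescence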
Hits are given with their value; . = inactive; / = no result. Shown are actives, neighbours in structure and some others; about 1.3% of the full set was active somewhere.

SMILES | UUG fidelity | SR-BI HDL uptake | GSIS activator | SR-BI DiI-HDL act
O=C(C[C@@H]1CC[C@H](NC(=O)c2ccncc2)[C@@H](CO)O1)NCC1CCCCC1 | . | / | . | /
O=C(NN=C1CCCC1)c1ccc(Cl)cc1 | . | . | . | .
O=C1CCC/C(=N/Nc2ccc(Cl)cc2)C1 | / | 79.6 | . | .
C[C@H](CO)N1C[C@H](C)[C@@H](CN(C)C(=O)Nc2ccc(F)cc2)Oc2ccc(NS(=O)(=O)c3ccccc3)cc2CC1=O | . | / | . | /
Cc1cccc(N2CCN(C(=O)c3cccn4c(=O)c5c(C)c(C)sc5nc34)CC2)c1C | . | . | 156.0 | .
CC(Nc1nc(-c2ccc(F)cc2)cs1)c1nc2cc(Cl)c(N3CCCCC3)cc2n1CCOCCO (stereo unspecified) | . | . | . | .
CC(Nc1nc(-c2cccc(Br)c2)cs1)c1nc2cc(Cl)c(N3CCCCC3)cc2n1CCOCCO (stereo unspecified) | . | 75.4 | . | .
Cc1cccc(NC(=O)c2sc3nc4c(c(-c5cccs5)c3c2N)CN(C)CC4)c1 | / | 82.8 | / | .
Cc1ccc(-c2cnc3c(c2)C(=O)N([C@@H](C)CO)C[C@H](C)[C@H](CN(C)S(C)(=O)=O)O3)cc1 | / | / | . | /
COc1ccc(C(=O)OCC(=O)NC2CCCC2)cc1OC | . | . | . | .
CCOc1ccc(C(=O)OCC(=O)Nc2cc(C)on2)cc1OCC | . | . | 62.3 | .
CCOc1cc(/C=C/C(=O)OCC(=O)NC2CCS(=O)(=O)C2)ccc1OCc1ccccc1 (stereo unspecified) | / | 73.5 | . | .
O=C(COC(=O)/C=C/c1ccccc1)NC1CCS(=O)(=O)C1 (stereo unspecified) | . | . | . | .
COc1ccc(C(=O)NCC(=O)OCC(=O)NC2CCCCCC2)cc1OC | . | . | 64.7 | .
CCOc1ccc(C(=O)OCC(=O)NC2CCCC2)cc1OCC | . | . | 41.2 | .
COc1ccc(C(=O)NCC(=O)OCC(=O)NC(=O)NC2CCCCC2)cc1OC | . | . | / | .
CCOc1cc(C(=O)OCC(=O)Nc2cc(C)on2)ccc1OCC(C)C | / | . | . | .
O=C(N1CCN(S(=O)(=O)c2ccc(Cl)cc2)CC1)n1ccnc1 | . | . | . | 65.1
C[C@@H]1CN([C@@H](C)CO)C(=O)c2cc(-c3cncnc3)cnc2O[C@H]1CN(C)C(=O)Nc1ccc2c(c1)OCO2 | . | / | . | /
O=C(Nc1cccc(F)c1)N1CC(=O)N2[C@@H](CO)[C@@H](c3ccc(Br)cc3)[C@@H]2C1 | / | / | . | /
CCc1ccc(OCC(=O)NC(NC(=S)Nc2ccccc2)C(Cl)(Cl)Cl)cc1 (stereo unspecified) | . | . | 199.3 | .
CC1=NS(=O)(=O)NC(C)(C)C1 | / | . | 52.5 | .
CC1=NC(C#N)=C(C#N)NC(C)(C)C1 | . | . | . | .
c1ccc(CCN2CCN=C2Nc2ccccc2)cc1 | . | . | 42.5 | .
Fc1ccc(CCN2CCN=C2Nc2ccccc2)cc1 | . | . | / | 67.8
SMILES | UUG fidelity | SR-BI HDL uptake | GSIS activator | SR-BI DiI-HDL act
Cc1cccc(CCN2CCN=C2Nc2ccccc2)c1 | . | . | . | .
CC1CCN(CCCn2c(=S)[nH]c3c(sc4ccccc43)c2=O)CC1 | . | . | . | .
O=c1c2sc3ccccc3c2[nH]c(=S)n1CCN1CCOCC1 | / | . | . | 71.3
C[C@H]1CN([C@@H](C)CO)C(=O)c2cc(C#CC3CCCCC3)cnc2O[C@@H]1CN(C)S(C)(=O)=O | . | / | . | /
COc1ccc(-c2oc3ccc(-c4cc(OC)c(OC)c(OC)c4)cc3c2C(=O)c2ccc(OC)nc2)cc1 | . | . | / | .
CCCOC(=O)c1c(-c2ccc(OC)cc2)oc2ccc(-c3ccc(OC)nc3)cc12 | . | 72.8 | . | .
COc1ccc(-c2oc3ccc(-c4ccc(OC)nc4)cc3c2-c2ccc(OC)cc2)cc1 | . | . | . | .
COC(=O)c1c(-c2ccc(OC)cc2)oc2ccc(-c3ccc(OC)nc3)cc12 | . | . | . | .
COc1ccc(-c2oc3ccc(-c4ccc5c(c4)OCO5)cc3c2C#CC2(O)CCCCC2)cc1 | . | 84.0 | . | .
COc1ccc(C(=O)c2c(-c3ccc(OC)cc3)oc3ccc(-c4cc(OC)c(OC)c(OC)c4)cc23)cc1 | . | 73.3 | . | .
COc1ccc(-c2oc3ccc(-c4ccc(OC)nc4)cc3c2C#CC2(O)CCCCC2)cc1 | . | 84.9 | . | .
